Here are results for one molecule from publication PMC10454913, “Neurohypophysial and paracrine vasopressinergic signaling regulates aquaporin trafficking to hydrate marine teleost oocytes” (Frontiers in Endocrinology, 2023).

The chains behind the UniProt entries cited, without tags or fusion partners. Residues count along the entry.
UniProt R9X0I6, 1-388: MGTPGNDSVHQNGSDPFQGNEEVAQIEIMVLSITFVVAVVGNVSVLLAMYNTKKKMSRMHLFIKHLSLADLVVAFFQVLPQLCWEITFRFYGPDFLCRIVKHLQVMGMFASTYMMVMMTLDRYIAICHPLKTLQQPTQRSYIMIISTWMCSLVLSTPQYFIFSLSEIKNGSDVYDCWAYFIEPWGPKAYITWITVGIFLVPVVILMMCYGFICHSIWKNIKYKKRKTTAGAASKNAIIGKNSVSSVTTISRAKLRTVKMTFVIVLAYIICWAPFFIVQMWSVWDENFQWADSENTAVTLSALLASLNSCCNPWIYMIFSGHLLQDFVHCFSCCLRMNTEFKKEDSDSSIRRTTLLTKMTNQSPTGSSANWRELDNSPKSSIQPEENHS

For the assay, the target named is seabream Avpr1aa (Sparus aurata, UniProt R9X0I6). Kind of assay: Activation of seabream Avpr1aa in transfected HEK293T cells (pCRE-luc / pSRE-luc reporters, Fluo-4 AM Ca2+). To be noted: antagonist 10^-12 to 10^-5 M before 10^-8 M Avp. The class given is cell-based, gilthead seabream (Sparus aurata).

The structures appear in SMILES notation.

In the case of `COc1cc(OC2CCN(C(C)=O)CC2)ccc1C(=O)N1CCC(N2C(=O)OCc3ccccc32)CC1` [L-371,257, 1-(1-[4-[(N-acetyl-4-piperidinyl)oxy]-2-methoxybenzoyl]piperidin-4-yl)-4H-3,1-benzoxazin-2(1H)-one], the “effect on Avpr1aa activation” value is given as “no effect”.
